From patent US20250170216A1 (Protagonist Therapeutics, Inc., priority 2022, published 2025)
Like-named read-outs stand apart in the source and are kept apart here.

What was measured:
[1] = biological target: T1, ferroportin (Homo sapiens, UniProt Q9NP59); assay: FPN activity assay: internalization of ferroportin-GFP in stably transfected HEK293 cells; assay type: cell-based; design: expressed in transfected cells; conditions: read-out: IC50: FPN
T1 sequence (Q9NP59 1-571): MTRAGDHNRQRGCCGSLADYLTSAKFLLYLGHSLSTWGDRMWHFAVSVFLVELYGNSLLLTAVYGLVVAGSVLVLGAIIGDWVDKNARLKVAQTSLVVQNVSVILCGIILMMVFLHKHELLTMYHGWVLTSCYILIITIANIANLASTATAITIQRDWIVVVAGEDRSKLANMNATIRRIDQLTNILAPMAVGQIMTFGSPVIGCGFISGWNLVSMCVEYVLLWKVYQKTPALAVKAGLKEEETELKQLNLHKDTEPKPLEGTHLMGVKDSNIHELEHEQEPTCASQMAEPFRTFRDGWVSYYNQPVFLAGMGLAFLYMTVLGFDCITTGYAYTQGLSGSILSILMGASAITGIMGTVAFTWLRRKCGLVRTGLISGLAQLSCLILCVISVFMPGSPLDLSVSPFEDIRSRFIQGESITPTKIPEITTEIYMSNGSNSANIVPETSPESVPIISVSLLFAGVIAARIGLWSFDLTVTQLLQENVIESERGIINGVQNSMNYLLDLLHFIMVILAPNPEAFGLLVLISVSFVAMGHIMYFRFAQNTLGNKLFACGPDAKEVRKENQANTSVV
Experimental: Peptide analogues were tested in vitro for induction of internalization of the human ferroportin protein. Following internalization, the ferroporin protein is degraded. The assay used (FPN activity assay) measures a decrease in fluorescence of the receptor. The cDNA encoding the human ferroportin (SLC40A1) was cloned from a cDNA clone from Origene (NM_014585). The DNA encoding the ferroportin was amplified by PCR using primers also encoding terminal restriction sites for subcloning, but without the termination codon. The ferroportin receptor was subcloned into a mammalian GFP expression vector containing a neomycin (G418) resistance marker in such that the reading frame of the ferroportin was fused in frame with the GFP protein. The fidelity of the DNA encoding the protein was confirmed by DNA sequencing. HEK293 cells were used for transfection of the ferroportin-GFP receptor expression plasmid. The cells were grown according to standard protocol in growth medium and transfected with the plasmids using Lipofectamine (manufacturer's protocol, Invitrogen). The cells stably expressing ferroportin-GFP were selected using G418 in the growth medium (in that only cells that have taken up and incorporated the cDNA expression plasmid survive) and sorted several times on a Cytomation MoFloTM cell sorter to obtain the GFP-positive cells (488 nm/530 nm). The cells were propagated and frozen in aliquots. […] Compound was added to desired final concentration for at least 18 hours in the incubator. Following incubation, the remaining GFP-fluorescence was determined either by whole cell GFP fluorescence (Envision plate reader, 485/535 filter pair), or by Beckman Coulter QuantaTM flow cytometer (express as Geometric mean of fluorescence intensity at 485 nm/525 nm). Compound was added to desired final concentration for at least 18 hours but no more than 24 hours in the incubator. In certain experiments, reference compounds included native Hepcidin, Mini-Hepcidin, and RT-Mini-Hepcidin, which is an analog of mini-hepcidin. The “RI” in RI-Mini-Hepcidin refers to Retro Inverse. A retro inverse peptide is a peptide with a reversed sequence in all D amino acids. An example is that […] becomes […]. The EC50 of these reference compounds for ferroportin internalization/degradation was determined according to the FPN activity assay described above. These peptides served as control standards.

[2] = biological target: T1, ferroportin; assay: T47D cell-based ferroportin internalization assay in presence of 0.5% mouse serum albumin (MSA); design: a human breast carcinoma adherent cell line which endogenously expresses ferroportin; host or cells: T47D
Experimental: The potency of the peptides in causing ferroportin internalization was evaluated in a T47D cell-based assay. […] In this internalization assay, the potency of the test peptides was evaluated in the presence of serum albumin, which is the main protein component in the blood. T47D cells were maintained in RPMI media (containing required amount of fetal bovine serum) and regularly sub-cultured. In preparation for the assay, the cells were seeded in 96-well plates at a density of 80-100 k cells per well in 100 ul volume and allowed to rest overnight. On the next day, test peptides were first prepared in dilution series (10-point series, starting concentration of ˜5 μM, typically 3-4×fold dilution steps), all with 0.5% mouse serum albumin (MSA purified from mouse serum; Sigma, A3139). The test peptide dilution series were allowed to incubate at room temperature for 30 min. Then the media was aspirated from the 96-well cell plate and test peptide dilution series were added. After 1 hr incubation, the media with test peptides was aspirated out and AF647-conjugated detection peptide was added at fixed concentration of 200 nM. The AF647-conjugated detection peptide was previously verified to bind to ferroportin and cause its internalization. The cells were washed again after a 2 hr incubation in preparation for flow cytometry analysis. The Median Fluorescence Intensity (MFI) of the AF647-positive population was measured (after removing dead cells and non-singlets from the analysis). The MFI values were used to generate a dose-response curve and obtain IC50 potencies for the test peptides. The IC50 potencies were calculated by using 4-parameter non-linear fitting function in Graphpad Prism, and the results are provided in Table 1C.

[3] = Table 1D, FPN internalization assay
[4] = Table 1D, T47D internalization, 0.5% mouse serum albumin, read-out: IC50: T47D MSA
[5] = Table 1C, FPN internalization assay
[6] = Table 1C, T47D internalization, 0.5% mouse serum albumin, read-out: IC50: T47D MSA

Row | DC50 [1, 3] | IC50 [2, 4] | Compound | further results
1 | 30 to 100 nM | 1 to 10 nM | CC[C@H](C)[C@@H]1NC(=O)[C@@H](NC(=O)[C@@H]2CCCN2C(=O)[C@@H](NC(=O)[C@H](Cc2c[nH]cn2)NC(=O)[C@@H](NC(=O)[C@H](CCC(=O)O)NC(=O)CC(C)C)[C@@H](C)O)C(c2ccccc2)c2ccccc2)CSSC[C@@H](C(N)=O)NC(=O)[C@@H](CCCCN)NC(=O)[C@H](C(c2ccccc2)c2ccccc2)NC(=O)[C@H](CCCCNC(=O)CCCc2ccc(I)cc2)NC1=O [compound 84] | –
2 | 1 to 30 nM | 1 to 10 nM | CCCCCCCCCCCCCCCC(=O)N[C@@H](CCC(=O)NCC[N+](C)(C)CC(=O)NCCCC[C@H]1C(=O)N[C@@H](Cc2ccccc2)CC(=O)N[C@H](CCCCN)C(=O)N[C@H](C(N)=O)CSSC[C@H](NC(=O)[C@@H]2CCCN2C(=O)[C@@H](NC(=O)[C@H](Cc2c[nH]cn2)NC(=O)[C@@H](NC(=O)[C@H](CCC(=O)O)NC(=O)CC(C)C)[C@@H](C)O)C(c2ccccc2)c2ccccc2)C(=O)N[C@@H]([C@@H](C)CC)C(=O)N1C)C(=O)O [compound 93] | –
3 | 30 to 100 nM | 1 to 10 nM | CC[C@H](C)[C@@H]1NC(=O)[C@@H](NC(=O)[C@@H]2CCCN2C(=O)[C@@H](NC(=O)[C@H](Cc2c[nH]cn2)NC(=O)[C@@H](NC(=O)[C@H](CCC(=O)O)NC(=O)CC(C)C)[C@@H](C)O)C(c2ccccc2)c2ccccc2)CSSC[C@@H](C(N)=O)NC(=O)[C@@H](CCCCN)NC(=O)[C@H](CCCCNC(=O)[C@H](CN)NC(=O)CCCc2ccc(I)cc2)NC(=O)[C@H](C(c2ccccc2)c2ccccc2)NC(=O)[C@@H](CCCCN)NC1=O [compound 83] | –
4 | – | – | CC[C@H](C)[C@@H]1NC(=O)[C@@H](NC(=O)[C@@H]2CCCN2C(=O)[C@@H](NC(=O)[C@H](Cc2c[nH]cn2)NC(=O)[C@@H](NC(=O)[C@H](CCC(=O)OC)NC(=O)CC(C)C)[C@@H](C)O)C(c2ccccc2)c2ccccc2)CSSC[C@@H](C(N)=O)NC(=O)[C@@H](CCCCN)NC(=O)[C@H](C(c2ccccc2)c2ccccc2)NC(=O)[C@H](CCCCNC(=O)CCCCCNC(=O)[C@H](CN)NC(=O)CCCCCCCCCCCCCCCCC(=O)O)N(C)C1=O [compound 35] | DC50 [1, 5]: 1 to 30 nM; IC50 [2, 6]: 11 to 100 nM
5 | 1 to 30 nM | 1 to 10 nM | CCCCCCCCCCCCCCCC(=O)N[C@@H](CCC(=O)NCC[N+](C)(C)CC(=O)NC[C@@H]1NC(=O)[C@H]([C@@H](C)CC)NC(=O)[C@@H](NC(=O)[C@@H]2CCCN2C(=O)[C@@H](NC(=O)[C@H](Cc2c[nH]cn2)NC(=O)[C@@H](NC(=O)[C@H](CCC(=O)O)NC(=O)CC(C)C)[C@@H](C)O)C(c2ccccc2)c2ccccc2)CSSC[C@@H](C(N)=O)NC(=O)[C@@H](CCCCN)NC(=O)C[C@H](Cc2ccccc2)NC1=O)C(=O)O [compound 86] | –
6 | 1 to 30 nM | 1 to 10 nM | CCCCCCCCCCCCCCCC(=O)NC(CC(=O)O)CC(=O)NCC[N+](C)(C)CC(=O)NCCCC[C@H]1C(=O)N[C@@H](Cc2ccccc2)CC(=O)N[C@H](CCCCN)C(=O)N[C@H](C(N)=O)CSSC[C@H](NC(=O)[C@@H]2CCCN2C(=O)[C@@H](NC(=O)[C@H](Cc2c[nH]cn2)NC(=O)[C@@H](NC(=O)[C@H](CCC(=O)O)NC(=O)CC(C)C)[C@@H](C)O)C(c2ccccc2)c2ccccc2)C(=O)N[C@@H]([C@@H](C)CC)C(=O)N1C (stereo partly drawn) [compound 89] | –
7 | – | – | CC[C@H](C)[C@@H]1NC(=O)[C@@H]2CSCc3cc(cc(c3)CSC[C@H](NC(=O)[C@H](CCC(=O)O)NC(=O)CC(C)C)C(=O)N[C@@H](Cc3c[nH]cn3)C(=O)N[C@@H](C(c3ccccc3)c3ccccc3)C(=O)N3CCC[C@H]3C(=O)N2)CSC[C@@H](C(N)=O)NC(=O)[C@@H](CCCCN)NC(=O)[C@H](CCCCNC(=O)CCCc2ccc(I)cc2)N(C)C(=O)[C@@H](CCCCN)NC1=O [compound 80] | DC50 [1]: > 500 nM; IC50 [2]: > 500 nM
8 | – | – | CC[C@H](C)[C@@H]1NC(=O)[C@@H](NC(=O)[C@@H]2CCCN2C(=O)[C@@H](NC(=O)[C@H](Cc2c[nH]cn2)NC(=O)[C@@H](NC(=O)[C@H](CCC(=O)O)NC(=O)CC(C)C)[C@@H](C)O)C(c2ccccc2)c2ccccc2)CSSC[C@@H](C(N)=O)NC(=O)[C@@H](CCCCNC(=O)CCC(=O)N[C@H](CC(=O)[O-])C[N+](C)(C)C)NC(=O)C[C@H](Cc2ccccc2)NC(=O)[C@H](CCCCNC(=O)COCCOCCNC(=O)COCCOCCNC(=O)[C@H](CN)NC(=O)CCCCCCCCCCCCCCCCC(=O)O)NC1=O [compound 53] | DC50 [1, 5]: 1 to 30 nM; IC50 [2, 6]: 11 to 100 nM
9 | – | – | CC[C@H](C)[C@@H]1NC(=O)[C@@H]2CSCc3cc(cc(c3)CSC[C@H](NC(=O)[C@H](CCC(=O)O)NC(=O)CC(C)C)C(=O)N[C@@H](Cc3c[nH]cn3)C(=O)N[C@@H](C(c3ccccc3)c3ccccc3)C(=O)N3CCC[C@H]3C(=O)N2)CSC[C@@H](C(N)=O)NC(=O)[C@@H](CCCCN)NC(=O)[C@H](CCCCNC(=O)CCCc2ccc(I)cc2)N(C)C(=O)[C@H](C(c2ccccc2)c2ccccc2)NC(=O)[C@@H](CCCCN)NC1=O [compound 81] | DC50 [1]: 100 to 500 nM; IC50 [2]: > 500 nM
